Chains of the proteins cited; added tags and fusions are not shown. Lines headed by an entry give the natural chain unless they say otherwise; changes in a name come on top.
UniProt P12956: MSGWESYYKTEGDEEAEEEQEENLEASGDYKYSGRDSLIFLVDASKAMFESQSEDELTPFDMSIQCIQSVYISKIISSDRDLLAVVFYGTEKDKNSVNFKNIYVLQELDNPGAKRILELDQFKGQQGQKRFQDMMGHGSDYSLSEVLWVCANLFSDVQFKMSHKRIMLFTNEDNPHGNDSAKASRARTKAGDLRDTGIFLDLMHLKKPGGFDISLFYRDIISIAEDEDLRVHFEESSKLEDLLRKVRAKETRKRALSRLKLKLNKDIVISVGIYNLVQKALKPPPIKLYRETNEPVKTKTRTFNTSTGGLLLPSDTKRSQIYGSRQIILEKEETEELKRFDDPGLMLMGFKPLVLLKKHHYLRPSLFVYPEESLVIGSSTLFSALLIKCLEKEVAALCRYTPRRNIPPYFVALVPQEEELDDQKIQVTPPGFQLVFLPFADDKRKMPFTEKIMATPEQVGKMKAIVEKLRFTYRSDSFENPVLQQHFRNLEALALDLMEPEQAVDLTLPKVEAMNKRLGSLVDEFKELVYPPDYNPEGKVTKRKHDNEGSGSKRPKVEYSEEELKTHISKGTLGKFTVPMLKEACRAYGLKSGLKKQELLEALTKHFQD
UniProt P13010: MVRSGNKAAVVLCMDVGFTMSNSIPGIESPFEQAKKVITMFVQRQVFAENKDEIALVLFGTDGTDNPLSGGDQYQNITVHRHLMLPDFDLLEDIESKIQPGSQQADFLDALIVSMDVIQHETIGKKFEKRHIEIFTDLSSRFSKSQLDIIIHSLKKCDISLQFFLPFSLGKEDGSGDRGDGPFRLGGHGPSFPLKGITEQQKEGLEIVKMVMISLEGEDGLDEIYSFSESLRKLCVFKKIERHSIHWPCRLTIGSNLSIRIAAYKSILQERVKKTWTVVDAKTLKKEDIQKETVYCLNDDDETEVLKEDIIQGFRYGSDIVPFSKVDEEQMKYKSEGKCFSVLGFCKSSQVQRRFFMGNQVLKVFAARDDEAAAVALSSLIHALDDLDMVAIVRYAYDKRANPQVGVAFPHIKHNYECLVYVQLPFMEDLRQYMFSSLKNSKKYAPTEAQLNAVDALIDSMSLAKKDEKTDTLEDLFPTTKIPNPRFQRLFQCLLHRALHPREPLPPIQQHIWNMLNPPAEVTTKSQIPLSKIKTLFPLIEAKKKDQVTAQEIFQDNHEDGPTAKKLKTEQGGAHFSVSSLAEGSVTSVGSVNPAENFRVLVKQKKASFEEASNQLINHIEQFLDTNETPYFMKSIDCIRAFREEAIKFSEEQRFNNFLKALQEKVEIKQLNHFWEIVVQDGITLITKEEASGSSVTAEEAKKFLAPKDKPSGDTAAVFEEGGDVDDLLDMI

In publication PMC10413649 (Science Advances, 2023):

Experiments:
[1] = system: DNA-PKcs S2056 phosphorylation in HEK-293T cells; test: DNA-PKcs S2056 phosphorylation, complementation of PAXX/XLF double KO cells (DNA end synapsis); assay type: cell-based, human; conditions: PAXX/XLF double KO HEK-293T cells complemented; 200 pM calicheamicin for 1 hr; Western blot; fig. S19
Description: (§1) Stock solution of calicheamicin γ1 (Cali), gift from P. R. Hamann (Wyeth Research, Pearl River, NY, USA), was made at 40 μM in ethanol and stored at −20°C. For drug exposure, exponentially growing cells in 60-cm-diameter dishes were either mock-treated or treated with Cali in fresh medium for 1 hour at 37°C. Then, cells were washed with PBS and trypsinized. Pellets were fractionated as follows. Cells were first resuspended for 7 min on ice in 120 μl of extraction buffer 1 [50 mM Hepes (pH 7.5), 150 mM NaCl, and 1 mM EDTA] containing 0.1% Triton X-100 and supplemented with the Halt protease and phosphatase inhibitor cocktail (Thermo Fisher Scientific) with intermittent gentle vortexing. […] Protein content was measured with BCA reagent (Pierce), and equivalent protein amounts were denaturated in loading buffer at 1× final concentration [50 mM tris-HCl (pH 6.8), 10% glycerol, 1% SDS, 300 mM 2-mercaptoethanol, and 0.01% bromophenol blue] at 95°C for 5 min, separated on SDS–polyacrylamide gel electrophoresis gels (Bio-Rad; 4 to 15% Tris-Glycine eXtended) precast gels) before overnight transfer onto Immobilon-P polyvinylidene difluoride (Millipore) membranes. […]

[2] = system: damaged chromatin fraction of U2OS cells expressing WT or mutated Ku70; test: Western blot of chromatin fractions after calicheamicin; assay type: cell-based, human; conditions: 3 nM calicheamicin for 1 hour, Fig. 3E
Description: as §1

[3] = target: T1, Ku70/80-DNA(F) (Homo sapiens, UniProt P12956+P13010); test: ITC, Ku-DNA(F) complex in cell titrated with PAXX or P-KBM peptides; assay type: binding; design: key to Kd: NI: no interaction; conditions: for Kd: ITC (VP-ITC), ITC cell: Ku-DNA(F), full-length Ku 5 μM, Ku:DNA 1:1.2, syringe peptide 50-100 μM, 20 mM tris (pH 8), 150 mM NaCl, 5 mM β-mercaptoethanol, 25°C, single set of independent sites fit; for interaction with Ku (ITC, words): same conditions as WT P-KBM
T1 construct: For ITC measurements, the full-length Ku heterodimer was used with the DNA G and F; 10xHis-tag followed by TEV protease site (N); made in house; host or cells: Sf21 insect cells (MultiBac)

[4] = system: laser-induced DNA damage sites in U2OS cells; test: Laser microirradiation, GFP-PAXX and mCherry-XLF coexpressed in U2OS cells with WT or mutated Ku70; assay type: cell-based, human; conditions: U2OS cells expressing Ku70 mutants; Fig. 5, B to E
Excerpt: Fig. 5. […] Ku70 is in orange, Ku80 in green, and DNA in yellow. (B) Principle of the laser microirradiation experiment and (C) representative images before and after irradiation of nuclei from U2OS cells expressing WT or mutated Ku70, cotransfected with GFP-PAXX and mCherry-XLF. (D and E) Quantification of fluorescence accumulation at laser-induced DNA damage sites in cells expressing GFP-PAXX and mCherry-XLF. Results were plotted as mean values ± SEM. Ku70 mutants are colored accordingly. (F) Western blotting on whole cell extracts from HEK-293T cells as stated, treated or not with 150 pM calicheamicin (Cali) for 1 hour. (G) Histogram with mean values ± SEM of end joining efficiency in HEK-293T cells as indicated, quantified by fluorescence expression analyzed by flow cytometry 48 hours after cell cotransfection with Cas9-targeted reporter and control circular plasmids. Values were set at 100% for the WT condition and statistical analysis was performed using the unpaired Student’s t-test. The P values for PAXXKO vs WT and XLFKO vs WT were 0.0188 (*) and 0.0011 (**), respectively. The P values for XLFKO/PAXXKO vs WT and XLFKO/PAXXKO vs XLFKO were <0.0001 (****).
The generation of U2OS cells expressing a mAID-Ku70 in place of the endogenous protein was achieved as follows. […]

Substance | Kd [3] | interaction with Ku (ITC, words) [3] | also measured
PAXX: full-length PAXX, paralog of XRCC4 and XLF, 6xHis-tag, expressed in E. coli; WT protein also expressed in cells | – | – | recovery of PAXX-dependent synapsis function (DNA-PKcs P-S2056) [1]: can be recovered
XLF: XRCC4-like factor, NHEJ core protein | – | – | recruitment to damaged chromatin fraction, Ku70 Patch 1 or Patch 2 mutated [2]: recruited at levels comparable to the control cells
PAXX bearing a F201A-mutated P-KBM: PAXX protein with F201A mutation in the P-KBM, used for complementation | – | – | recovery of PAXX-dependent synapsis function (DNA-PKcs P-S2056) [1]: but not with PAXX bearing a F201A-mutated P-KBM
Ac-RRRCPGEALINPGFKSKKPAGGVDFDET-COOH [KBM(SA), P-KBM peptide with S184A mutation] | NI | no interaction with Ku | –
mCherry-XLF: mCherry-tagged XLF expressed in U2OS cells | – | – | recruitment of coexpressed GFP-PAXX / mCherry-XLF to DNA damage sites with Ku70 mutations [4]: preserved
Ac-RRRCPGESLINPGFKSKKPAGGADADET-COOH [KBM(VFAA), P-KBM peptide with double mutation V199A + F201A] | NI | no interaction with Ku | –
Ac-RRRCPGESLIEPGFKSKKPAGGVDFDET-COOH [KBM(NE), P-KBM peptide with N187E mutation] | NI | no interaction with Ku | –
